# The list shows a part of the results, in another mix than the full data. The source made the active and inactive calls.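 Rule for the calls: active = inhibition reaching a set limit with compound at 10 µM in the primary screen (cut at about 35% in these data); inactive = the rest.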
# By UniProt entry, the sequences of proteins in these tests, tags left out. Where a name states a change or a piece, a line headed by the entry shows the natural chain unless it says otherwise.
# UniProt P09923: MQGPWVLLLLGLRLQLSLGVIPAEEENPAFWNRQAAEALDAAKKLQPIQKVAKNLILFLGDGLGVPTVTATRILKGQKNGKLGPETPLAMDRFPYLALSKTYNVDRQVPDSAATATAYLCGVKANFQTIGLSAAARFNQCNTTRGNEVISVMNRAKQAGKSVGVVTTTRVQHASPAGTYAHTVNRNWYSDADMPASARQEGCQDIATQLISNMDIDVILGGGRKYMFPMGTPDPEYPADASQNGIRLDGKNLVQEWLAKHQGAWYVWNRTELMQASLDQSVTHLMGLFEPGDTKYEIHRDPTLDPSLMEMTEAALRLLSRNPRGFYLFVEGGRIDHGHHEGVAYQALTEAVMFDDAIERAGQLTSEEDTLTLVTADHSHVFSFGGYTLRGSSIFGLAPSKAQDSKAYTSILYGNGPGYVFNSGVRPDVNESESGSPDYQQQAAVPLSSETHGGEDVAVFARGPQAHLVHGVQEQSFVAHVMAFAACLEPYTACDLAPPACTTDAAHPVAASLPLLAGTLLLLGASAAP
# Target: Intestinal-type alkaline phosphatase (Homo sapiens) (UniProt P09923)
# Test: blockers of intestinal alkaline phosphatase activity – biochemical, luminescence, uHTS, primary screen (AID 2544);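 note: plate controls were DMSO wells with enzyme for no effect and no-enzyme buffer wells for full effect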
# Details: purified IAP, CDP-Star luminescence, 30 min; at 10 µM; stronger effect = higher value
row,SMILES,inhibition
1,CS(=O)(=O)c1cc([N+](=O)[O-])c2no[n+]([O-])c2c1,inactive: -8.9%
2,CCOP1(=S)c2c(C)nn(CCC#N)c2N=C(c2ccccc2F)N1C (configuration not stated),inactive: 4.9%
3,O=P(Nc1nccs1)(c1ccccc1)c1nc2ccccc2s1 (configuration not stated),inactive: -4.7%
4,O=P(Nc1nccs1)(Oc1ccccc1)Oc1ccccc1,inactive: -11.5%
5,Nc1ccccc1[As](=O)(O)c1ccccc1,inactive: 0.8%
6,O=C(O)COc1ccc([As](=O)(O)O)cc1[N+](=O)[O-],inactive: 14%
7,NC(=O)Nc1ccc([As](=O)(O)O)cc1,inactive: -13.5%
8,CN(C)C(=O)c1cc([N+](=O)[O-])cc2c1-c1c(cc([N+](=O)[O-])cc1[N+](=O)[O-])C2=O,inactive: 5.6%
9,O=[N+]([O-])c1ccc2c(c1)nnn2O,inactive: 8.2%
10,CN(C(=O)Cc1ccc(Cl)c(Cl)c1)[C@H]1CC[C@@]2(CCCO2)C[C@@H]1N1CCCC1,inactive: 14.6%
11,N#CCCN(C(=O)COC(=O)C(O)(c1ccccc1)c1ccccc1)c1ccc(F)cc1,inactive: -7.5%
12,CN(C(=O)Cc1ccccc1)[C@@H]1CC[C@]2(CCCO2)C[C@H]1N1CCCC1,inactive: 0.3%
13,CCOP1(=S)c2c(C)nn(CCC#N)c2N=C(c2ccc(F)cc2)N1C (configuration not stated),active: 38.8%
14,COc1cc(C(=O)NCC2(N3CCOCC3)CCCCC2)cc(Cl)c1OC(C)C,inactive: -9.7%
15,O=[As](O)(O)c1cccnc1,inactive: 4.7%
16,CS(=O)(=O)c1ccc(Cl)c(NC(=O)COC(=O)C(O)(c2ccccc2)c2ccccc2)c1,inactive: -26.5%
17,O=C(OC1CN2CCC1CC2)c1ccc(Cl)cc1 (configuration not stated),inactive: 7.2%
18,O=[As](O)(c1cccc(O)c1)c1cccc(O)c1,inactive: 12.2%
19,Cc1cccc(OCC(=O)OC2CN3CCC2CC3)c1 (configuration not stated),inactive: 12.8%
20,CCCOP(=S)(Nc1nc(N)cc(=O)[nH]1)OCCC,inactive: -8.9%
21,Cc1ccc(NCCc2c([N+](=O)[O-])cc([N+](=O)[O-])cc2[N+](=O)[O-])cc1,inactive: 7.2%
22,COc1cc(C2NCCC3(OCCO3)C2(C)C)cc(OC)c1OC (configuration not stated),inactive: -14.1%
23,CCOP(=O)(Nc1cccc2ccccc12)OCC,inactive: 7.3%
24,CN(CCCl)Cc1cc(Cl)c(NC2=NCCN2)c(Cl)c1,inactive: 9.9%
25,CCOP(=O)(Nc1ccc(C)cn1)OCC,inactive: 15.6%
26,O=P1(Nc2ccccn2)COc2ccccc2OC1,inactive: -15.5%

row,SMILES,inhibition
1,CCC1=CC2Cc3nc4ccc(Cl)cc4c(N)c3C(C1)C2 (configuration not stated),inactive: 3.9%
2,CCOP(=O)(NC(=NC(C)c1ccccc1)NC(C)c1ccccc1)OCC (configuration not stated),inactive: -9.2%
3,Clc1n[nH]nc1-c1nn[nH][15n]1,inactive: 3.6%
4,CC(C)(C)C(=O)NC(Sc1ncccn1)C(Cl)(Cl)Cl (configuration not stated),inactive: 0.8%
5,COc1ccccc1CNC(=O)COC(=O)C(O)(c1ccccc1)c1ccccc1,inactive: 7.8%
6,O=[As](O)(c1ccccc1Br)c1ccccc1Br,inactive: -15.9%
7,CC1(CBr)Cn2c(nc3ccccc3c2=O)S1 (configuration not stated),inactive: 3.4%
8,CC(C)/C=N\N=C(\N)N[N+](=O)[O-],inactive: 12.1%
9,CN(C(=O)Cc1ccc(Cl)c(Cl)c1)[C@@H]1CCCC[C@H]1N1CCCC1,inactive: -6.6%
10,Cc1nn(-c2ccccc2)c2c1P(=O)(N1CCOCC1)N(C)C(c1ccccc1)=N2 (configuration not stated),inactive: -1.2%
11,CC1CCC(C(C)C)C(OP(=O)(Nc2ccccn2)c2ccccc2)C1 (configuration not stated),inactive: 5.2%
12,Cc1ccc(C(=O)OC2CN3CCC2CC3)cc1 (configuration not stated),inactive: 8.3%
13,O=C(/C=C/c1ccccc1)OC1CN2CCC1CC2 (configuration not stated),inactive: 4%
14,CN(C)C1(CNC(=O)c2ccc(S(C)(=O)=O)cc2)CCCCC1,inactive: -8.2%
15,O=P1(Nc2ncccn2)COc2ccccc2OC1,inactive: 6.1%
16,O=P1(Nc2ccc(Br)cn2)COc2ccccc2OC1,inactive: -10.7%
17,NS(=O)(=O)c1cccc(NC(=O)COC(=O)C(O)(c2ccccc2)c2ccccc2)c1,inactive: -8.8%
18,O=[As](O)(c1cccs1)c1cccs1,inactive: -3.9%
19,Cc1ccc(OCC(=O)OC2CN3CCC2CC3)cc1 (configuration not stated),inactive: -9.4%
20,Nc1cccc([As](=O)(O)c2ccccc2)c1,inactive: -12.1%
21,CCOC(=O)Nc1ccc([As](=O)(O)O)c(O)c1,inactive: -5.7%
22,CCCCOc1ccc(C(=O)NCC2(N3CCCCC3)CCCCC2)cc1OC,inactive: -12.2%
23,Cc1cc(SC(NC(=O)c2ccccc2)C(Cl)(Cl)Cl)nc(C(C)C)n1 (configuration not stated),inactive: 1.7%
24,CCOC(=O)Nc1cccc([As](=O)(O)O)c1,inactive: -0.9%
25,O=P(Nc1ccccn1)(c1cccc2ccccc12)c1cccc2ccccc12,inactive: 5%
26,Cc1cc(SC(NC=O)C(Cl)(Cl)Cl)ncn1 (configuration not stated),inactive: -22.3%

row,SMILES,inhibition
1,COP1(=S)c2c(C)nn(CCC#N)c2N=C(c2ccc(F)cc2)N1C (configuration not stated),inactive: 4.9%
2,O=C(COc1ccccc1)OC1CN2CCC1CC2 (configuration not stated),inactive: -13.4%
3,O=C(Nc1ccncc1[N+](=O)[O-])c1ccc([N+](=O)[O-])cc1[N+](=O)[O-],inactive: -11.9%
4,CCOC(=O)c1ccc(NC(=O)C(C)(CCl)SC)cc1 (configuration not stated),inactive: 0.1%
5,O=C(OC1CN2CCC1CC2)c1cccc([N+](=O)[O-])c1 (configuration not stated),inactive: 4.7%
6,CCC(C)N(CC(C)C)C(=S)SC(NC(C)=O)C(Cl)(Cl)Cl (configuration not stated),inactive: -8.8%
7,O=C(OC1CN2CCC1CC2)C12CC3CC(CC(C3)C1)C2 (configuration not stated),inactive: 7.9%
8,Cc1cc(=O)[nH]c(N[N+](=O)[O-])n1,inactive: -6.3%
9,Cc1c2c(nc3ccccc13)SC(C(Cl)Cl)C2 (configuration not stated),inactive: 8.5%
10,COc1ccc2nc(NP(=O)(c3ccccc3)c3ccccc3)sc2c1,inactive: -9.2%
11,COc1cc(I)ccc1[As](=O)(O)O,inactive: 11.5%
12,COc1ccc(N/C(=N/P(=O)(N2CCOCC2)N2CCOCC2)N2CCOCC2)cc1,inactive: 3.2%
13,O=[As](O)(c1ccc(O)cc1)c1ccccc1O,inactive: -12.1%
14,C[As](=O)(O)c1cccc(C(=O)O)c1,inactive: -2.5%
15,COc1cc(C(=O)NCC2(N3CCOCC3)CCCCC2)ccc1OCC(C)C,inactive: -11.7%
16,Cc1ccc2nc3c(c(C)c2c1)CC(C(Cl)Cl)S3 (configuration not stated),inactive: 10.5%
17,Cc1ccc(OP(=O)(Nc2ccc([N+](=O)[O-])cn2)Oc2ccc(C)cc2)cc1,inactive: -4.3%
18,CC(C)c1ccc(OP(=O)(Nc2ccccn2)Oc2ccccc2F)cc1 (configuration not stated),inactive: 9.1%
19,ClCCSc1nnc(-c2cccnc2)o1,inactive: 11.7%
20,O=C(OC1CN2CCC1CC2)c1cccc2[nH]cnc12 (configuration not stated),inactive: -26.7%
21,CCN(CC)C(=S)SC(NC=O)C(Cl)(Cl)Cl (configuration not stated),inactive: -16.7%
22,CC(C)NC(=O)NP(=O)(Oc1ccccc1)Oc1ccccc1,inactive: -2.2%
23,O=[N+]([O-])c1cc([N+](=O)[O-])c(-c2ccn[nH]2)s1,inactive: 11%
24,O=C(O)c1ccccc1[As](=O)(O)O,inactive: 2.8%
25,CC(=O)Nc1ccc([As](=O)(O)O)cc1,inactive: 10.8%
26,O=P(Nc1nc2ccc(Cl)cc2s1)(c1ccccc1)c1ccccc1,inactive: -21.4%

row,SMILES,inhibition
1,CCOP(=O)(Nc1ccccc1)OCC,inactive: -5.7%
2,Cc1cc(SC(NC(=O)c2ccc(F)cc2)C(Cl)(Cl)Cl)ncn1 (configuration not stated),inactive: 9%
3,Cc1ccc(NP(=O)(Oc2ccccc2F)Oc2ccccc2F)nc1,inactive: 8.5%
4,CN(C(=O)Cc1ccc(Cl)c(Cl)c1)[C@H]1CCCC[C@@H]1N1CCCC1,inactive: -2.5%
5,O=[N+]([O-])c1cc([N+](=O)[O-])c(CCN2CCOCC2)c([N+](=O)[O-])c1,inactive: 21.1%
6,CCN(N=Nc1nonc1N)c1nonc1N,inactive: 2.2%
7,NC(=O)c1cc([N+](=O)[O-])cc([N+](=O)[O-])c1N,inactive: -7.7%
8,CN(C(=O)Cc1ccc(Cl)c(Cl)c1)[C@H]1CCCC[C@H]1N1CCCC1,inactive: 7.8%
9,Cc1ccc(N/C(=N/P(=O)(N2CCOCC2)N2CCOCC2)N2CCOCC2)cc1,inactive: 1.5%
10,COc1ccccc1OP(=O)(Nc1ccc(C)cn1)Oc1ccccc1OC,inactive: -15.8%
11,Cc1ccc(OP(=O)(Nc2nccs2)Oc2ccc(C)cc2)cc1,inactive: -18.2%
12,Clc1ccc(Cl)c(NC2=NCC(CBr)S2)c1 (configuration not stated),inactive: 14%
13,CN1CCCC(OC(=O)C(c2ccccc2)c2ccccc2)C1 (configuration not stated),inactive: -0.4%
14,CC(C)CC(=O)NC(Sc1ccc(Cl)cc1)C(Cl)(Cl)Cl (configuration not stated),inactive: -18.4%
15,Nc1cc(N)c2nonc2c1[N+](=O)[O-],inactive: 1.6%
16,Oc1ccccc1CNc1ccccn1,inactive: 2.7%
17,Cc1c2non([O-])c-2c(C)[n+](=O)[n+]1[O-],inactive: 9.7%
18,O=C(NC(Sc1ccncn1)C(Cl)(Cl)Cl)c1ccccc1 (configuration not stated),inactive: -1.4%
19,COc1ccc(C2=NCC(CBr)S2)cc1 (configuration not stated),inactive: -6.1%
20,O=[N+]([O-])c1cccc2n[nH]nc12,inactive: 11.1%
21,CC(=O)N1C2C3N(C(C)=O)C1C1N(C(C)=O)C(C(N1C(C)=O)N3C(C)=O)N2C(C)=O,inactive: -1.5%
22,Cc1ccc(NP(=O)(Oc2ccccc2)Oc2ccccc2)nc1,inactive: -29.8%
23,CCc1nc2c(n1)c1c(non1O)c1c2no[n+]1[O-],inactive: 19.8%
24,O=[N+]([O-])c1cc([N+](=O)[O-])c(CCNc2ccccc2)c([N+](=O)[O-])c1,inactive: 8.8%

# Source: PubChem BioAssay AID2544 (Sanford-Burnham Center for Chemical Genomics, 2010)
